Laboratory results taken from patent publication EP3954371B1, “ANTI-ACETYLCHOLINESTERASE ACTIVE COMPOSITION IN CAULIS MAHONIAE AND SCREENING METHOD THEREFOR AND APPLICATION THEREOF” (Shenzhen Institute for Drug Control (Shenzhen Testing …, priority 2019, dated 2021).

Amino acid sequences for entries named in this document (tags omitted). Residues count along the entry.
UniProt P22303, 32-614: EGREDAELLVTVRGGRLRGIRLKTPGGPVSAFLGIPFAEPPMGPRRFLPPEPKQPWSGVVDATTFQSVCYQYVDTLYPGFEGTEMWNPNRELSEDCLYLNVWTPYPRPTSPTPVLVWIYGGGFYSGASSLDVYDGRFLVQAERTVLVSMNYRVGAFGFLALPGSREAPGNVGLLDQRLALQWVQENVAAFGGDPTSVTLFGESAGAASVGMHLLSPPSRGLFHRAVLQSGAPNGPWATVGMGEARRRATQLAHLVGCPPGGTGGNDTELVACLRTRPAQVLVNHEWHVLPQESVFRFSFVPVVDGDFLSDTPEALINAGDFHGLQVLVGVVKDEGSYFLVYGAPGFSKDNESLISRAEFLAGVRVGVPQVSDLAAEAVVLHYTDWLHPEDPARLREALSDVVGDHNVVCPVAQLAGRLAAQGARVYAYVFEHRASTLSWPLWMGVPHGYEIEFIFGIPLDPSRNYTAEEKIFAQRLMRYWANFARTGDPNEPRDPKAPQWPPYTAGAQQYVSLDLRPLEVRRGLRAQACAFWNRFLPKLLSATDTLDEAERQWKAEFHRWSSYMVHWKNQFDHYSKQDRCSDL

Target: T1, AChE (Homo sapiens, UniProt P22303)
T1 construct: purchased Sigma
Assay: biochemical
Description: For the reaction system, see Table 3. The specific steps are described below.
140 µL of phosphate buffer (PBS, 0.1 mol/L, pH = 7.4), 20 µL of AChE (0.303 U/mL) and 20 µL of sample solution were added in sequence to a 96-well plate, mixed evenly, and added with 10 µL of DTNB (3.3 mM) and 10 µL of acetylthiocholine iodide (ATCI) (15 mM). They were mixed evenly and incubated for 10 min at 37 °C, then measured absorbance at 405 nm.
The sample was replaced with PBS in a blank enzyme group. The sample was replaced with PBS in a blank enzyme-free group. The enzyme solution was replaced with PBS in the sample control group.
The inhibitory rate of the sample against AChE activity is calculated by the following formula: Inhibitory rate = [1−(Asample−Asample control)/(Ablank enzyme−Ablank enzyme−free)] × 100% [formula]
The median inhibitory concentration of AChE was calculated by testing inhibitory rates at different sample concentrations. […] Table 3 Anti-AChE activity screening method

COc1ccc2cc3[n+](cc2c1OC)CCc1cc2c(cc1-3)OCO2 [Ber, berberine]
IC50: 7.46 µM
